Measured values: patent US9844595B2, “Composition comprising a complex of (+)-catechin and amino acid for the treatment and prevention of cancer” (VALORE, priority 2013, dated 2017)

Legend:
[1] = in vivo, po
Experimental: (§1) With regard to taking the blood samples from the rats and from the human beings, the blood was collected in tubes internally coated with EDTA and was then centrifuged at 3000 rpm (revolutions per minute) at ambient temperature for 45 min, and then for 15 min at a temperature of 4° C. The plasma was then collected and stored at −70° C. before analysis.
The analytical technique (LC-MS/MS for Liquid Chromatography coupled to tandem Mass Spectrometry) for measuring the active substance in the blood was based on the method described by Mata-Bilbao et al., published in 2007 in the Journal of Agricultural and Food Chemistry, volume 55, page 8857.
(§2) The free (+)-catechin was extracted from the plasma with a solution of phosphoric acid, EDTA and ascorbic acid and was then purified by SPE (solid phase extraction); in particular, it is an Oasis™ HLB extraction which is analyzed by LC-MS/MS. The quantification was carried out according to a standard calibration procedure with (+/−)-catechin-2,3,4-^13C3 as internal standard (SI).
This complex salt is administered to a group A of 5 healthy volunteers.
This ct parameter makes it possible to calculate, from the data of table 1, the bioavailability of the (+)-catechin expressed in ng h/ml.

[2] = rat, in vivo, 25 mg/kg
Experimental: The experimental results described below were obtained on the basis of a study carried out in healthy human beings and in healthy Wistar rats weighing approximately 250 grams.
An acclimation period was observed before beginning the experiments.
The rats received an administration per os of a volume of 5 ml of a solution of active product.
as §1, with “analysis. […]” for “analysis.”
as §2
The procedure is identical with regard to the extraction and the quantification of free quercetin or ECGC in the blood. […]

Substance: monomeric (+)-catechin hydrochlorolysinate [[C:Lys:HCl/1:1:1]]
- T (max) [1]: 30 min
- c (max) [1]: 525 ng/mL
- increase in speed of passage into the blood, T (max), compared with pure (+)-catechin [1]: +166%
- ct value estimated from the curve of ct as a function of the (+)-catechin:lysine molar equivalence ratio (FIG. 5) [2]: 127 000 ng min/ml
- ct, value reported on the curve in FIG. 5 [2]: 127 k ng min/ml
